In the experiment the target is Pin1 (Homo sapiens, UniProt Q13526, K77Q/K82Q). Kind of experiment: co-crystal structure ([…] Å), […]-HSQC NMR; Ki from chymotrypsin-coupled PPIase assay.

Protein sequences, listed by entry. Tags and fused reporters are not part of them. Residues count along the entry.
UniProt Q13526, 51-163 K77Q/K82Q limits assumed: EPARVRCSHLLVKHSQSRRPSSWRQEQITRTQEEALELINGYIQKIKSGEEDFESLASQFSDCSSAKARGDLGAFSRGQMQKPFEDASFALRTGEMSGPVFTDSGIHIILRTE

Each structure is given as a SMILES string.

As to `O=[As]O[As]=O` (stereo not shown) [ATO, Arsenic trioxide], the Ki amounted to 116 nM.

In general, Ki refers to the equilibrium dissociation constant of an inhibitor or competing ligand from its target. A high value points to a looser hold on the target.

The record behind these values is article PMC6085299 (Nature Communications, 2018).
